The text below walks through data of paper PMC6592956, “Characterization of Porcine Hepatic and Intestinal Drug Metabolizing CYP450: Comparison with Human Orthologues from A Quantitative, Activity and Selectivity Perspective” (Scientific Reports, 2019).

Structures are written as SMILES. Where “and” joins values, the source holds several entries; their conditions need not be identical. Equal entries are not always repeated.

Data set [1] deals with porcine hepatic CYP450 enzymes. As to the kind of experiment: Stepwise multiple linear regression of probe activity on CYP450 protein concentrations and on other metabolites.
Data set [2] concerns porcine hepatic CYP450.
The subject of data set [3] is porcine hepatic CYP450 enzymes. The following applies: for Porcine Vmax: 8 males, 8 females, 12 weeks, 3 replicates each.
Data set [4] has as its system porcine hepatic CYP450 enzymes. As to the kind of experiment: in vitro. The following applies: both, hybrid sow × Piétrain boar cross (conventional pig).
Data set [5] has as its system CYP2C.
Data set [6] has as its system CYP2E.
The test system of data set [7] is CYP1A.
Data set [8] has as its system human CYP450. As to conditions: ref [86]–[88]; cited from earlier work.
The subject of data set [9] is CYP2A.
Data set [10] concerns porcine hepatic CYP450. The data set is described as follows: Incubation with inhibitors: statements on all investigated reactions in porcine hepatic microsomes. In kind it is in vitro ADME, conventional pig. As to conditions: for Inhibition of any of the investigated reactions: also at 10 times the concentration of the methods section.
The subject of data set [11] is CYP2C. As to conditions: Tolbutamide 200 µM, inhibitor NA, replicates 1-3.
The mark [12] stands for this setting: porcine hepatic microsomes, mean (SD).
[13] abbreviates: dependent DEX, Concentration 2, with metabolites, model 1.
Where [14] appears, read: dependent DEX, Concentration 6, with enzymes, model 2.
[15] abbreviates: Dependent Variable: OH_CM, Concentration 2, with metabolites, Model 2, predictors PAR_s, OH_TB_s.
[16] abbreviates: Dependent Variable: OH_CM, Concentration 6, with metabolites, Model 2, predictors PAR_s, OH_CZ_s.
The mark [17] stands for this setting: Dependent Variable: OH_CZ, Concentration 6, with metabolites, Model 1, predictor OH_TB_s.
Where [18] appears, read: Dependent Variable: OH_CZ, Concentration 6, with metabolites, Model 2, predictors OH_TB_s, OH_MDZ_s.
[19] abbreviates: dependent OH_MDZ, Concentration 2, with metabolites, model 2, predictor PAR_s.

By inhibition is commonly meant the share of the control response that was lost under treatment. The low end stands for a response near the control, the high end for a response far below the control. The term Km denotes the substrate concentration at which the rate is half of its maximum. With `O=c1ccc2ccccc2o1` [CM, coumarin], the “Enzymes selected by regression analysis” value in data set [1] (Conc Level 2 (Table 1)) and in data set [1] (Conc Level 6 (Table 1)) was “CYP2A19” in each case. Also, the figures for the “Metabolites selected by regression analysis” value (“Metabolites selected” below) in data set [1] (Conc Level 2 (Table 1)) and in [1] (Conc Level 6 (Table 1)) were “PAR OH-CZ” and “PAR”, respectively. For the same compound, the inhibition in data set [2] was below 20%. Further, the “Porcine Vmax” value in data set [3] (setting [12]) is on record as 303 (119.2) pmol/min/mg protein. The Km in data set [4] worked out at 1.3 µM.

As for `CN1CC[C@@]23CCCC[C@@H]2[C@@H]1Cc1ccc(O)cc13` [DEX], the “Unstandardized Coefficients B” value in [1] (dependent DEX, Concentration 2, with enzymes, model 1, (Constant)) is given as 188,676; in data set [1] (dependent DEX, Concentration 2, with enzymes, model 1, predictor CYP2C33_s) it was 58,821; in data set [1] (dependent DEX, Concentration 2, with enzymes, model 2, (Constant)) it was 188,676; in [1] (dependent DEX, Concentration 2, with enzymes, model 2, predictor CYP2C33_s), 38,307; in [1] (dependent DEX, Concentration 2, with enzymes, model 2, predictor CYP3A46_s) it was 38,167. Moreover, the “Unstandardized Coefficient B, (Constant)” value in data set [1] (setting [13]) is recorded as 188,676. Further, the “Unstandardized Coefficient B, OH_TB_s” value in data set [1] (setting [13]) is reported as 53,633. Also, the “Unstandardized Coefficient B, CYP3A46_s” value in [1] (dependent DEX, Concentration 6, with enzymes, model 1) was 374,350; in data set [1] (setting [14]), 272,379. In data set [1] (setting [14]), the “Unstandardized Coefficient B, CYP2C33_s” value was 189,717. The “Unstandardized Coefficient B, OH_MDZ_s” value in data set [1] (dependent DEX, Concentration 6, with metabolites, model 1) was 307,305.

With `COc1ccc2c(c1)[C@]13CCCC[C@@H]1[C@H](C2)N(C)CC3` [DXM, Dextromethorphan], the “Ratio of reaction rate dual substrates versus single substrate, TB reaction” value in [5] is listed as 0.82 (0.153). Further, the “Activity, double substrate incubation for Dextromethorphan (different microsome pool batch)” value in [5] (hybrid sow × Piétrain boar cross (conventional pig), pig) is 12.21 pmol/min/mg protein. The “Ratio of reaction rate dual substrates versus single substrate, CZ reaction” value in data set [6] is 0.95 (0.050). In [1] (Conc Level 2 (Table 1)), the “Enzymes selected by regression analysis” value was “CYP2C33 CYP3A46 CYP1A2” and the “Metabolites selected” value is “OH-TB”. Also, in data set [1] (Conc Level 6 (Table 1)), the “Enzymes selected by regression analysis” value is given as “CYP3A46 CYP1A2” and the “Metabolites selected” value is “OH-MDZ”. In data set [2], this compound showed an inhibition below 20%. Also, the “Ratio of reaction rate dual substrates versus single substrate, PH reaction” value in data set [7] is reported as 0.82 (0.082). Further, the “O-demethylation, times faster in pigs than in humans” value in data set [3] (pig versus human) is on record as “up to 7 times”. Moreover, the “Porcine Vmax” value in data set [3] (setting [12]) is given as 1592 (480.7) pmol/min/mg protein. Further, the “Human rate of DXM-O-demethylation” value in data set [8] is recorded as 18.0–233 pmol/min/mg protein. Further, in [4], the Km came out at 6.7 µM. For the same compound, in [9], the “Ratio of reaction rate dual substrates versus single substrate, CM reaction” value was 0.86 (0.106).

Regarding `CCN(CC)C(=S)S` [Diethyldithiocarbamate, diethyldithiocarbamate], the “Decrease of all reactions” value in [10] (inhibitor concentration increased above 20 µM) is on record as above 40%.

In the case of `Cc1ncc2n1-c1ccc(Cl)cc1C(c1ccccc1F)=NC2` [MDZ, Midazolam], the “Inhibition of / influence on CZ-hydroxylation by co-incubated substrate” value in data set [6] (microsomes) was “increased rate”. Also, in data set [3] (pig versus human, ref [48]), the “MDZ-hydroxylation rate, times lower compared to humans” value was 2 to 3 times. Moreover, in [3] (setting [12]), the “Porcine Hill coefficient” value was 1.23 (0.089) and the “Porcine Vmax” value is 1848 (637) pmol/min/mg protein. Besides, the Km in data set [4] was determined as 15.3 µM.

On to `O=c1ccc2ccc(O)cc2o1` [OH_CM], for which the “Unstandardized Coefficients B, (Constant)” value in [1] (Dependent Variable: OH_CM, Concentration 2, with enzymes, Model 1, predictor CYP2A19_s) was 84,249; in data set [1] (Dependent Variable: OH_CM, Concentration 2, with enzymes, Model 2, predictors CYP2A19_s, CYP2C33_s), 84,249; in data set [1] (Dependent Variable: OH_CM, Concentration 2, with metabolites, Model 1, predictor PAR_s) it was 84,249; in data set [1] (setting [15]), 84,249; in [1] (Dependent Variable: OH_CM, Concentration 6, with enzymes, Model 1, predictor CYP2A19_s), 302,082; in [1] (Dependent Variable: OH_CM, Concentration 6, with metabolites, Model 1, predictor PAR_s) it was 302,082. Besides, the “Unstandardized Coefficients B, (Constant)” value in data set [1] (setting [16]) is on record as 302,082.

Consider `O=c1[nH]c2cc(Cl)c(O)cc2o1` [OH_CZ], for which the “Unstandardized Coefficients B, (Constant)” value was 80,093 in [1] (Dependent Variable: OH_CZ, Concentration 2, with enzymes, Model 1, predictor CYP3A46_s); 80,093 in [1] (Dependent Variable: OH_CZ, Concentration 2, with enzymes, Model 2, predictors CYP3A46_s, CYP2C33_s); 80,093 in data set [1] (Dependent Variable: OH_CZ, Concentration 2, with metabolites, Model 1, predictor PAR_s); 595,976 in [1] (Dependent Variable: OH_CZ, Concentration 6, with enzymes, Model 1, predictor CYP2E1_s); 595,976 in data set [1] (Dependent Variable: OH_CZ, Concentration 6, with enzymes, Model 2, predictors CYP2E1_s, CYP2A19_s); 595,976 in [1] (Dependent Variable: OH_CZ, Concentration 6, with enzymes, Model 3, predictors CYP2E1_s, CYP2A19_s, CYP2C49_s). Moreover, the “Unstandardized Coefficients B, (Constant)” value in data set [1] (setting [17]) and in data set [1] (setting [18]) was 595,976 in each case.

Turning to `O=c1[nH]c2cc(Cl)c(O)cc2o1` [OH_CZ_s], in data set [1] (setting [16]), the “Unstandardized Coefficients B” value is listed as -85,873.

With `OCc1ncc2n1-c1ccc(Cl)cc1C(c1ccccc1F)=NC2` [OH_MDZ], the “Unstandardized Coefficients B” value in data set [1] (dependent OH_MDZ, Concentration 2, with enzymes, model 1, (Constant)) is 134,521; in data set [1] (dependent OH_MDZ, Concentration 2, with enzymes, model 1, predictor CYP3A22_s), 26,246; in [1] (dependent OH_MDZ, Concentration 2, with enzymes, model 2, (Constant)), 134,521; in [1] (dependent OH_MDZ, Concentration 2, with enzymes, model 2, predictor CYP2E1_s) it was -19,603; in data set [1] (dependent OH_MDZ, Concentration 2, with enzymes, model 2, predictor CYP3A22_s) it was 38,497; in data set [1] (dependent OH_MDZ, Concentration 2, with metabolites, model 1, (Constant)) it was 134,521. Besides, the “Unstandardized Coefficients B” value is on record as 23,539 in data set [1] (dependent OH_MDZ, Concentration 2, with metabolites, model 1, predictor PAR_s); 134,521 in [1] (dependent OH_MDZ, Concentration 2, with metabolites, model 2, (Constant)); -42,509 in data set [1] (dependent OH_MDZ, Concentration 2, with metabolites, model 2, predictor OH_CM_s); 61,260 in [1] (setting [19]); 304,669 in data set [1] (dependent OH_MDZ, Concentration 6, with enzymes, model 1, predictor CYP3A46_s); 164,727 in data set [1] (dependent OH_MDZ, Concentration 6, with enzymes, model 2, predictor CYP2C49_s). Moreover, the “Unstandardized Coefficients B” value was 280,664 in data set [1] (dependent OH_MDZ, Concentration 6, with enzymes, model 2, predictor CYP3A46_s); 360,122 in data set [1] (dependent OH_MDZ, Concentration 6, with metabolites, model 1, predictor PAR_s); 217,711 in data set [1] (dependent OH_MDZ, Concentration 6, with metabolites, model 2, predictor OH_CZ_s); 218,144 in data set [1] (dependent OH_MDZ, Concentration 6, with metabolites, model 2, predictor PAR_s). For the same compound, in data set [1] (setting [19]), the “Standardized Coefficients Beta” value was 1,439.

Take `OCc1ncc2n1-c1ccc(Cl)cc1C(c1ccccc1F)=NC2` [OH_MDZ_s]: in [1] (setting [18]), the “Unstandardized Coefficients B” value was 73,483.

For the compound `CCCCNC(=O)NS(=O)(=O)c1ccc(CO)cc1` [OH_TB_s], the figures for the “Unstandardized Coefficients B” value in data set [1] (setting [15]), in data set [1] (setting [17]) and in [1] (setting [18]) were -11,935, 134,028 and 89,207, respectively.

As for `C=C[C@H]1C[N@@]2CC[C@H]1C[C@@H]2[C@@H](O)c1ccnc2ccc(OC)cc12` [Quinidine, quinidine], in data set [10], the “Inhibition of any of the investigated reactions” value is listed as “did not inhibit any of the investigated reactions”.

With `Nc1ccc(S(=O)(=O)Nc2ccnn2-c2ccccc2)cc1` [Sulphaphenazole, sulphaphenazole], the “Inhibition of any of the investigated reactions” value in [10] is “did not inhibit any of the investigated reactions”.

For `CCCCNC(=O)NS(=O)(=O)c1ccc(C)cc1` [TB, tolbutamide], the “Activity, incubation with inhibitors” value in data set [11] was 16.69 pmol/min/mg protein and 16.51 pmol/min/mg protein and 14.42 pmol/min/mg protein. For the same compound, the inhibition in data set [2] was below 20%. Besides, the “Affinity, times lower than in humans” value in [3] (pig versus human, ref [76]) is 5 to 10 times. In addition, in [3] (setting [12]), the “Porcine Vmax” value is 269 (182.1) pmol/min/mg protein. Also, in data set [4] (hepatic microsomes), the Km amounted to 2080 µM.

As for `O=c1cc(-c2ccccc2)oc2c1ccc1ccccc12` [α-naphthoflavone], the “Inhibition of any reaction” value in data set [10] (inhibitor 0.1 µM (around Ki for human CYP1A2)) is reported as “did not inhibit any reaction”.
